The subject of the assay is recombinant SnCDPK1. Nature of the assay: Recombinant SnCDPK1 thermal shift assay. Type of assay: binding, Sarcocystis neurona. Particulars: 20 µM BKI, 5% DMSO; change in Tm vs DMSO control.

The text below walks through data of article PMC5130624 (International journal for parasitology, 2016).

Regarding `CCOc1ccc2cc(-c3nn(CC4CCN(C)CC4)c4ncnc(N)c34)ccc2c1` [compound 1294], the “Recombinant SnCDPK1 Thermal Shift (°C) at 20 µM” value amounted to 9.9 °C.
